# Source: paper PMC9945734 (BMC Medicine, 2023)
# Tested on: PC-3-KQ cells
# Assay: 3D spheroid invasion assay and screening of FDA-approved drugs
# Settings: 0.01 μM (first column so headed); secondary screening of 87 hit compounds (Table S1); compared to vehicle control
substance,measurement,value
Gramicidin,Invasion rates (%) of each drug’s multiple concentrations (μM),99.27%
